Our source for the IC50 values is BindingDB's records for patent US9416123 (Synovo, 2016).

Protein sequences, listed by entry. Tags and fused reporters are not part of them. Chains listed by the source or under a name are the forms on record and can include a tag or linker.
UniProt P00533, with tags, fused parts or gaps DEL746-750 limits assumed: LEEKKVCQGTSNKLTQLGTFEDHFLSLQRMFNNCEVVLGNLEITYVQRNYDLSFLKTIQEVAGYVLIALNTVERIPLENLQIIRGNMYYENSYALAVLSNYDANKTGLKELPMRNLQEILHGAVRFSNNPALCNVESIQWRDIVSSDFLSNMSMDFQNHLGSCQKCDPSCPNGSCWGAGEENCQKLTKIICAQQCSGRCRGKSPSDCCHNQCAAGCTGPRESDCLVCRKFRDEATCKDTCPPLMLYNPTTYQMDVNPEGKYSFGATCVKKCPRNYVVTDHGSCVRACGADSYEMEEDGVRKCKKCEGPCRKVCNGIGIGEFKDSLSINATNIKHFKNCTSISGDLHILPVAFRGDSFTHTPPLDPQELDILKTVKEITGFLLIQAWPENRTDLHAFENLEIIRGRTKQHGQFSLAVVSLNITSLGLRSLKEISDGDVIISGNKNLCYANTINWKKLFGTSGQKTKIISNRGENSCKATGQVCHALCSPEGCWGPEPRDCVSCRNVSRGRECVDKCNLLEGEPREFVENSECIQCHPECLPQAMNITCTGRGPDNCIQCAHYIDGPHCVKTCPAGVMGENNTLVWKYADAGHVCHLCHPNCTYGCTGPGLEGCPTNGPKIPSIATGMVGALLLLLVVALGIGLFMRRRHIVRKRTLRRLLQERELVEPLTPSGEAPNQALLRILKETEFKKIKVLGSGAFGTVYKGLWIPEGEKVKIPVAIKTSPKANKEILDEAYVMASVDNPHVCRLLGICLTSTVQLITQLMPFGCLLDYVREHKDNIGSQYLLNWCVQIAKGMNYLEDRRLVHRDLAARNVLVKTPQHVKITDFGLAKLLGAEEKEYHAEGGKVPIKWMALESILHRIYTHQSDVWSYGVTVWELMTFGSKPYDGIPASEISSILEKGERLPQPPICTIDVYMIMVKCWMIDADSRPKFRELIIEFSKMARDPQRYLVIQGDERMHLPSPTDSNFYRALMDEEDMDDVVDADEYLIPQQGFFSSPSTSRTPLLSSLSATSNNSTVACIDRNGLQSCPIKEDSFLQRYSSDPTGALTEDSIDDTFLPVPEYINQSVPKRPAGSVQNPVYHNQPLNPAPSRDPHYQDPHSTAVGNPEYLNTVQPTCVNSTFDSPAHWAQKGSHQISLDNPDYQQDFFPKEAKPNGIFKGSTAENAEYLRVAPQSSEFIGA

This assay deals with T1, Epidermal growth factor receptor [DEL746-750] (Homo sapiens, UniProt P00533, DEL746-750).
T1 construct: gene EGFR
The following applies: pH 7.5; 30 °C.

The molecule `Nc1c(-c2ccc(F)cc2)c(-c2ccncc2)nn1-c1c(Cl)cc(Cl)cc1Cl` [US9416123, 6] had an IC50 of 50 nM. This lies in the double-digit nanomolar range.

Broadly, the IC50 is the midpoint of a concentration-inhibition curve. Higher therefore signals a need for much substance.
